# scFv variants of Ab-14 (light chain) against a SARS-CoV-2 spike peptide

Antigen: PDVDLGDISGINAS, a 14-residue peptide of the SARS-CoV-2 spike HR2 region.

Parent scFv Ab-14: VH joined to VL by a (GGGGS)3 linker. Changes lie in the light chain CDRs alone.
VH: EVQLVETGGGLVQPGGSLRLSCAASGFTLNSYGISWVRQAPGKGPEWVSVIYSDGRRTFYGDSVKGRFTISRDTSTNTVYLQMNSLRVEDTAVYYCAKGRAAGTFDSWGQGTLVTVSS
VL: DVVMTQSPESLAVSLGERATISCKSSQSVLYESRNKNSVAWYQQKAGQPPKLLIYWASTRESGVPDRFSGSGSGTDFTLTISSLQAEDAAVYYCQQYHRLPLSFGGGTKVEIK

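The starting antibody came from a phage panning campaign against this peptide. AAYL50 was designed without a model: most single CDR substitutions and a random sample of double and triple ones. AlphaSeq pools MATa yeast showing the antibodies with MATalpha yeast showing the peptide. Pairs that bind mate more often; barcode pairs of the diploids are counted by sequencing. Each replicate has its own calibration line, from reference interactions of the BCL2 family. Each pool was mated in three replicate cultures.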

Changes read parent residue, position, new residue, counted from the first residue of the VL shown. Every variant below is changed at A57 of the VL (sequential numbering). Scale: log10 of Kd in nM, estimated from mating counts; low values are strong binders. Replicates are averaged; those with no signal do not enter the mean. Where no diploid with the target was found in any replicate, the entry reads "nd": below detection, most likely a poor binder, though not proof of it.

With A57T+Y97L+H98V the result was 2.83 (3 of 3 replicates; controls 4 of 9).
With Q27A+A57M+P101V the result was nd (0 of 3 replicates; controls 0 of 9).
With S25Y+Q27P+A57Q the result was 1.95 (3 of 3 replicates; controls 3 of 9).
With A57R+Q95L+H98A the result was 1.99 (1 of 3 replicates; controls 0 of 9).
With Y31T+A57Y+P101H the result was 5.87 (1 of 3 replicates; controls 4 of 9).
With L30V+A57M+Q95L the result was 4.94 (1 of 3 replicates; controls 1 of 9).
With S38N+A57N+P101N the result was 5.15 (1 of 3 replicates; controls 6 of 9).
With R34P+A57S+R99M the result was 3.00 (3 of 3 replicates; controls 1 of 9).
With S26E+E32V+A57P the result was nd (0 of 3 replicates; controls 1 of 9).
With S38V+V39Y+A57T the result was 3.23 (1 of 3 replicates; controls 0 of 9).
With K36A+V39E+A57I the result was 5.45 (1 of 3 replicates; controls 1 of 9).
With S38D+A57V+E61R the result was 2.65 (3 of 3 replicates; controls 1 of 9).
With K36T+A57P+Q96R the result was 4.52 (1 of 3 replicates; controls 2 of 9).
With S25G+A57V+P101W the result was nd (0 of 3 replicates; controls 0 of 9).
With Y31N+A40Q+A57S the result was 3.55 (1 of 3 replicates; controls 3 of 9).
With S26V+K36D+A57T the result was 1.59 (3 of 3 replicates; controls 1 of 9).
With N37T+A57P+S62V the result was 4.50 (1 of 3 replicates; controls 1 of 9).
With A57Q+H98K+P101G the result was nd (0 of 3 replicates; controls 0 of 9).
With Y31T+A57W+R60N the result was nd (0 of 3 replicates; controls 0 of 9).
With K24Y+A57Q+S103C the result was 4.23 (2 of 3 replicates; controls 2 of 9).
With W56H+A57M+Q95E the result was 0.34 (3 of 3 replicates; controls 0 of 9).
With K24P+K36M+A57G the result was nd (0 of 3 replicates; controls 0 of 9).
With K36E+N37E+A57Y the result was nd (0 of 3 replicates; controls 0 of 9).
With E32N+A57Q+S62C the result was 2.44 (3 of 3 replicates; controls 6 of 9).
With A57V+R60N the result was nd (0 of 3 replicates; controls 1 of 9).
With W56H+A57G+S62R the result was 0.56 (3 of 3 replicates; controls 2 of 9).
With Q27E+W56I+A57Y the result was nd (0 of 3 replicates; controls 1 of 9).
With R34L+A57T the result was 0.65 (3 of 3 replicates; controls 3 of 9).
With S33P+A40K+A57W the result was nd (0 of 3 replicates; controls 0 of 9).
With A57F+L102N the result was 5.08 (2 of 3 replicates; controls 1 of 9).
With A57E+Y97A+H98W the result was 4.60 (2 of 3 replicates; controls 5 of 9).
With K36M+A57L+L102A the result was 3.43 (1 of 3 replicates; controls 2 of 9).
With A57I+S103V the result was 5.11 (2 of 3 replicates; controls 3 of 9).
With A57L+R60L the result was 4.31 (2 of 3 replicates; controls 3 of 9).
With A57Y+T59G the result was nd (0 of 3 replicates; controls 4 of 9).

Picked from the list: the 4 lowest averages where every replicate gave a value.

W56H+A57M+Q95E: 0.34 (3 of 3 replicates; controls 0 of 9).
W56H+A57G+S62R: 0.56 (3 of 3 replicates; controls 2 of 9).
R34L+A57T: 0.65 (3 of 3 replicates; controls 3 of 9).
S26V+K36D+A57T: 1.59 (3 of 3 replicates; controls 1 of 9).

Three control strains display no target. For library AAYL50, 18% of the pairings with them gave a signal, with a median of 4.19 and one signal in twenty below 2.99, so weak values seen in few replicates may be background. Also given: how often the same scFv was detected with the empty control strains. Parent in this assay: reference entry 0.65, copy in this library 1.68.

Source: Engelhart et al. 2022 (doi:10.1038/s41597-022-01779-4), MIT Lincoln Laboratory and A-Alpha Bio; data file from the FLAb repository.